These are literature values, as cited in publication PMC6191370.

Chains of the proteins cited; added tags and fusions are not shown. Residues count along the entry.
UniProt P01589, 22-240, chain 1 of 3: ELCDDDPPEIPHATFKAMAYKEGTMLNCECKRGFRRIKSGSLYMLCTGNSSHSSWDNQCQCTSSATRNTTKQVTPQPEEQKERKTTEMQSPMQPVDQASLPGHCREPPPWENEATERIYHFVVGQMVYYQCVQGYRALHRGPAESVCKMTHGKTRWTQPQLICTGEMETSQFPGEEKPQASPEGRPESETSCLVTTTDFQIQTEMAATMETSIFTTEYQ
UniProt P60568, 21-153: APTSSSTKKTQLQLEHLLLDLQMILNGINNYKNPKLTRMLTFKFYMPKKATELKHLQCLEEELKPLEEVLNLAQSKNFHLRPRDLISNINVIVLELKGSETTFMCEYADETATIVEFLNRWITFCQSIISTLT

For orientation: pKd means the Kd on a negative log10 scale, so that one unit is a factor of ten.

This data set deals with high-affinity IL-2R (alpha/beta/gamma chains) (Homo sapiens) (UniProt P01589).

pKd: −log10 of the molar value.

Regarding IL-2 (from UniProt P60568), the pKd is 11.00.
